These are literature values, as cited in patent US20220265700A1, “METHODS TO PREVENT, INHIBIT OR TREAT INTERVERTEBRAL DISC DEGENERATION” (University of Iowa Research Foundation, priority 2021, published 2022).

This data set has as its system rat nucleus pulposus cells. To be noted: 30 μM tBHP (Lin et al., 2020); cited from earlier work.

In the case of `CC(C)(C)OO` [tBHP, tert-butyl hydrogen peroxide], the “cell apoptosis and mitochondrial dysfunction relative to control” value was 6-7 times.
